Values quoted from earlier work in PMC9932299.

By UniProt entry, the sequences of proteins in these tests, tags left out. Residues count along the entry.
UniProt P05067, 672-711: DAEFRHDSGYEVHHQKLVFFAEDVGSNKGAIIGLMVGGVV
UniProt P02649, 19-317: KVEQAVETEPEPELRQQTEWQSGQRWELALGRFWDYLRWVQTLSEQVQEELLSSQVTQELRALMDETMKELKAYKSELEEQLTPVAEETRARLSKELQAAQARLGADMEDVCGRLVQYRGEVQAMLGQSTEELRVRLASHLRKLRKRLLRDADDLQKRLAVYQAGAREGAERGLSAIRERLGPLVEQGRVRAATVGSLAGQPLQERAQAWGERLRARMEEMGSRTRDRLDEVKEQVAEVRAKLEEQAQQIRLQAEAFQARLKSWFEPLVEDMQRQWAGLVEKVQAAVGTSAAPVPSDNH

Biological target: Amyloid-beta (Homo sapiens) (UniProt P05067)

Kd: 20 nM
Substance: Apolipoprotein E (from UniProt P02649)
